# Measured values reported in article PMC8991199, “Promiscuity mapping of the S100 protein family using a high-throughput holdup assay” (Scientific Reports, 2022).
# How the values were obtained:
# Format in all cases: binding
# S100A6 = S100A6 (Homo sapiens, UniProt P06703); assay: direct fluorescence polarization (FP), S100A6; details: S100A6, 50 nM labeled foldamer, 20 mM HEPES pH 7.5, 150 mM NaCl, 1 mM CaCl2, 0.5 mM TCEP, 0.01% Tween20, quadratic fit, mean ± SEM, three technical repeats, threshold 1 mM
# Method: HTP (and also low-throughput) measurements generally need to be validated by an orthogonal approach to eliminate experimental artifacts. […] This way, we chose WL, IF, WW, YF, IL, VL, TW, RF, RR, TI, TM, and after resynthesizing with a fluorescent label at the C-terminus (Figs. S15–S26, Table S1), the S100ome was tested against the labeled foldamers by direct fluorescence polarization (FP) (Fig. 3A). In this assay, the association of the fluorescently labeled foldamer and the S100 protein of interest is monitored, through the change in polarization of the emitted light by the fluorophore upon the binding event. In direct FP, the presence of the fluorophore might change the binding affinity of some foldamers. […] Nevertheless, we assumed that the fluorophore would affect all foldamers that target the same binding site to the same degree, because the foldamer scaffold is rigid. Defining the threshold of detection at the dissociation constant of 1 mM, we identified 87 interactions between the selected foldamer fragments and the S100ome out of 220 possible interactions (Table 1, Fig. S4-14).
# S100 proteins (UniProt accession codes: S100A1: P23297, S100A2: P29034, S100A3: P33764, S100A4: P26447, S100A5: P33763, S100A6: P06703, S100A7: P31151, S100A8: P05109, S100A9: P06702, S100A10: P60903, S100A11: P31949, S100A12: P80511, S100A13: Q99584, S100A14: Q9HCY8, S100A15: Q86SG5, S100A16: Q96FQ6, S100B: P04271, S100G: P29377, S100P: P25815 and S100Z: Q8WXG8) were expressed and purified with N-terminal His6-tag as described previously. Briefly, S100 proteins were cloned into a modified pET15b vector with a TEV protease cleavable N-terminal His6-tag and expressed in Escherichia coli BL21 (DE3) cells, followed by Ni^2+-affinity chromatography. For HU assay, S100 proteins were further purified by either hydrophobic interaction chromatography or ion exchange chromatography without the cleavage of the N-terminal His6-tag applying standard conditions. For direct FP measurements, the N-terminal His6-tag was cleaved, and the S100 proteins were purified by hydrophobic interaction chromatography, ion exchange chromatography or size exclusion chromatography. The quality of the recombinant proteins was checked by SDS-PAGE analysis in all cases. The concentration of the recombinant S100 proteins was determined by UV spectrophotometry using the absorbance of Tyr and Trp residues.
# In direct fluorescence polarization assays, S100 proteins were diluted in a buffer containing 50 nM labeled foldamer, 20 mM HEPES pH 7.5, 150 mM NaCl, 1 mM CaCl2, 0.5 mM TCEP and 0.01% Tween20. The dilution series (50 µl) were divided into three technical repeats and transferred (15 µl) to a 384-well microplate. In competitive fluorescence polarization assays, the buffer applied in direct measurements was supplemented with the S100 protein of interest to reach a saturation of 60–80%. This mixture was titrated with the competitor (i.e. the unlabeled peptide). Fluorescence polarization was measured in 8 different S100 concentrations (one of which contained no S100 protein) on a Synergy H4 plate reader using 485 ± 20 nm and 528 ± 20 nm band-pass filters for excitation and emission, respectively. The Kd values were obtained by fitting the data from the FP measurements with the python-based ProFit software using quadratic and competitive binding equation for direct and competitive FP, respectively. The detection threshold was based on two parameters. First, we rejected all fitted dissociation constants above 1 mM.
# S100A4 = S100A4 (Homo sapiens, UniProt P26447); assay: direct fluorescence polarization (FP), S100A4; details: S100A4, 50 nM labeled foldamer, 20 mM HEPES pH 7.5, 150 mM NaCl, 1 mM CaCl2, 0.5 mM TCEP, 0.01% Tween20, quadratic fit, mean ± SEM, three technical repeats, threshold 1 mM
# Method: (§1) HTP (and also low-throughput) measurements generally need to be validated by an orthogonal approach to eliminate experimental artifacts. […] This way, we chose WL, IF, WW, YF, IL, VL, TW, RF, RR, TI, TM, and after resynthesizing with a fluorescent label at the C-terminus (Figs. S15–S26, Table S1), the S100ome was tested against the labeled foldamers by direct fluorescence polarization (FP) (Fig. 3A). In this assay, the association of the fluorescently labeled foldamer and the S100 protein of interest is monitored, through the change in polarization of the emitted light by the fluorophore upon the binding event. […]
# (§2) S100 proteins (UniProt accession codes: S100A1: P23297, S100A2: P29034, S100A3: P33764, S100A4: P26447, S100A5: P33763, S100A6: P06703, S100A7: P31151, S100A8: P05109, S100A9: P06702, S100A10: P60903, S100A11: P31949, S100A12: P80511, S100A13: Q99584, S100A14: Q9HCY8, S100A15: Q86SG5, S100A16: Q96FQ6, S100B: P04271, S100G: P29377, S100P: P25815 and S100Z: Q8WXG8) were expressed and purified with N-terminal His6-tag as described previously. […] The concentration of the recombinant S100 proteins was determined by UV spectrophotometry using the absorbance of Tyr and Trp residues.
# (§3) In direct fluorescence polarization assays, S100 proteins were diluted in a buffer containing 50 nM labeled foldamer, 20 mM HEPES pH 7.5, 150 mM NaCl, 1 mM CaCl2, 0.5 mM TCEP and 0.01% Tween20. […]
# S100A1 = biological target: T1, S100A1 (Homo sapiens, UniProt P23297); assay: direct fluorescence polarization (FP), S100A1; details: S100A1, 50 nM labeled foldamer, 20 mM HEPES pH 7.5, 150 mM NaCl, 1 mM CaCl2, 0.5 mM TCEP, 0.01% Tween20, quadratic fit, mean ± SEM, three technical repeats, threshold 1 mM
# T1 sequence (P23297 1-94): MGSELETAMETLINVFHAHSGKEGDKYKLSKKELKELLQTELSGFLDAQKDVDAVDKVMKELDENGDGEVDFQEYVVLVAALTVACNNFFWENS
# Method: as §1, §2, §3
# S100P = biological target: T2, S100P (Homo sapiens, UniProt P25815); assay: direct fluorescence polarization (FP), S100P; details: 50 nM labeled foldamer, 20 mM HEPES pH 7.5, 150 mM NaCl, 1 mM CaCl2, 0.5 mM TCEP, 0.01% Tween20, quadratic fit, mean ± SEM, three technical repeats, threshold 1 mM
# T2 sequence (P25815 1-95): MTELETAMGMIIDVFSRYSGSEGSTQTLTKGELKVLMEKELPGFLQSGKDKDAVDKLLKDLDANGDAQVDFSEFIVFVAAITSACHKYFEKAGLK
# Method: as §1, §2, §3
# S100A10 = S100A10 (Homo sapiens, UniProt P60903); assay: direct fluorescence polarization (FP), S100A10; details: S100A10, 50 nM labeled foldamer, 20 mM HEPES pH 7.5, 150 mM NaCl, 1 mM CaCl2, 0.5 mM TCEP, 0.01% Tween20, quadratic fit, mean ± SEM, three technical repeats, threshold 1 mM
# Method: as §1, §2, §3
# S100Z = biological target: T3, S100Z (Homo sapiens, UniProt Q8WXG8); assay: direct fluorescence polarization (FP), S100Z; details: 50 nM labeled foldamer, 20 mM HEPES pH 7.5, 150 mM NaCl, 1 mM CaCl2, 0.5 mM TCEP, 0.01% Tween20, quadratic fit, mean ± SEM, three technical repeats, threshold 1 mM
# T3 sequence (Q8WXG8 1-99): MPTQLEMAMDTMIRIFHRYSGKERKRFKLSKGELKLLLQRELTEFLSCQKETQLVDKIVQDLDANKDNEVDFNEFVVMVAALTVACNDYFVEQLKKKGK
# Method: as §1, §2, §3
# S100A2 = S100A2 (Homo sapiens, UniProt P29034); assay: direct fluorescence polarization (FP), S100A2; details: S100A2, 50 nM labeled foldamer, 20 mM HEPES pH 7.5, 150 mM NaCl, 1 mM CaCl2, 0.5 mM TCEP, 0.01% Tween20, quadratic fit, mean ± SEM, three technical repeats, threshold 1 mM
# Method: as §1, §2, §3
SMILES,Kd (S100A6),other results
N=C(N)NCCC[C@@H](CC(=O)N[C@H]1CCCC[C@@H]1C(=O)N[C@H]1CCCC[C@@H]1C(=O)N[C@H](CC(=O)N[C@H]1CCCC[C@@H]1C(=O)NCC(=O)N[C@@H](CCCCNC(=O)c1ccc2c(c1)C1(OC2=O)c2ccc(O)cc2Oc2cc(O)ccc21)C(N)=O)Cc1ccccc1)NC(=O)[C@H]1CCCC[C@@H]1N [fRF],290 ± 14 µM,
CC(C)C[C@@H](CC(=O)N[C@H]1CCCC[C@@H]1C(=O)NCC(=O)N[C@@H](CCCCNC(=O)c1ccc2c(c1)C1(OC2=O)c2ccc(O)cc2Oc2cc(O)ccc21)C(N)=O)NC(=O)[C@H]1CCCC[C@@H]1NC(=O)[C@H]1CCCC[C@@H]1NC(=O)C[C@@H](NC(=O)[C@H]1CCCC[C@@H]1N)C(C)C [fVL],170 ± 13 µM,
NC(=O)[C@H](CCCCNC(=O)c1ccc2c(c1)C1(OC2=O)c2ccc(O)cc2Oc2cc(O)ccc21)NC(=O)CNC(=O)[C@H]1CCCC[C@@H]1NC(=O)C[C@H](Cc1c[nH]c2ccccc12)NC(=O)[C@H]1CCCC[C@@H]1NC(=O)[C@H]1CCCC[C@@H]1NC(=O)C[C@H](Cc1c[nH]c2ccccc12)NC(=O)[C@H]1CCCC[C@@H]1N [fWW],,Kd (S100A4): 160 ± 9.8 µM
CC[C@H](C)[C@@H](CC(=O)N[C@H]1CCCC[C@@H]1C(=O)N[C@H]1CCCC[C@@H]1C(=O)N[C@H](CC(=O)N[C@H]1CCCC[C@@H]1C(=O)NCC(=O)N[C@@H](CCCCNC(=O)c1ccc2c(c1)C1(OC2=O)c2ccc(O)cc2Oc2cc(O)ccc21)C(N)=O)CC(C)C)NC(=O)[C@H]1CCCC[C@@H]1N [fIL],82 ± 5.4 µM,Kd (S100A1): 160 ± 24 µM
NC(=O)[C@H](CCCCNC(=O)c1ccc2c(c1)C1(OC2=O)c2ccc(O)cc2Oc2cc(O)ccc21)NC(=O)CNC(=O)[C@H]1CCCC[C@@H]1NC(=O)C[C@H](Cc1ccccc1)NC(=O)[C@H]1CCCC[C@@H]1NC(=O)[C@H]1CCCC[C@@H]1NC(=O)C[C@H](Cc1ccc(O)cc1)NC(=O)[C@H]1CCCC[C@@H]1N [fYF],42 ± 3.3 µM,
C[C@@H](O)[C@@H](CC(=O)N[C@H]1CCCC[C@@H]1C(=O)N[C@H]1CCCC[C@@H]1C(=O)N[C@H](CC(=O)N[C@H]1CCCC[C@@H]1C(=O)NCC(=O)N[C@@H](CCCCNC(=O)c1ccc2c(c1)C1(OC2=O)c2ccc(O)cc2Oc2cc(O)ccc21)C(N)=O)Cc1c[nH]c2ccccc12)NC(=O)[C@H]1CCCC[C@@H]1N [fTW],160 ± 8.1 µM,Kd (S100P): 170 ± 9.8 µM; Kd (S100A10): 170 ± 5.6 µM; Kd (S100Z): 520 ± 59 µM; Kd (S100A2): 170 ± 5.5 µM
CC[C@H](C)[C@@H](CC(=O)N[C@H]1CCCC[C@@H]1C(=O)N[C@H]1CCCC[C@@H]1C(=O)N[C@H](CC(=O)N[C@H]1CCCC[C@@H]1C(=O)NCC(=O)N[C@@H](CCCCNC(=O)c1ccc2c(c1)C1(OC2=O)c2ccc(O)cc2Oc2cc(O)ccc21)C(N)=O)Cc1ccccc1)NC(=O)[C@H]1CCCC[C@@H]1N [fIF],57 ± 1.8 µM,
